The text below walks through data of patent US6060462A, “Electrophilic peptide analogs as inhibitors of trypsin-like enzymes” (DuPont Pharmaceuticals Company, priority 1997, dated 2000).

Chains of the proteins cited; added tags and fusions are not shown. Residues count along the entry.
UniProt P00742, 235-488 limits assumed: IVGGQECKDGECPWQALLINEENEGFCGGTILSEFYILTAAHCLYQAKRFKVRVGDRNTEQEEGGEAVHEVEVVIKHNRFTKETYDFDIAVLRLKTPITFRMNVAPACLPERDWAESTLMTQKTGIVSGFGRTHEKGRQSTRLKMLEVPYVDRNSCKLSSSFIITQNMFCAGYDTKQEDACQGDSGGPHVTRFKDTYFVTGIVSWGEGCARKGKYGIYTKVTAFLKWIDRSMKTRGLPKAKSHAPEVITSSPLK
UniProt P00742, 41-179 partner limits assumed: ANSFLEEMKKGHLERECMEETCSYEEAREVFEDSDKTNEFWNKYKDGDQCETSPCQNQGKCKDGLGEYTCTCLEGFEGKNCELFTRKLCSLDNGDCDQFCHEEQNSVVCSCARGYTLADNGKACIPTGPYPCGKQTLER
UniProt P08709, 213-466 limits assumed: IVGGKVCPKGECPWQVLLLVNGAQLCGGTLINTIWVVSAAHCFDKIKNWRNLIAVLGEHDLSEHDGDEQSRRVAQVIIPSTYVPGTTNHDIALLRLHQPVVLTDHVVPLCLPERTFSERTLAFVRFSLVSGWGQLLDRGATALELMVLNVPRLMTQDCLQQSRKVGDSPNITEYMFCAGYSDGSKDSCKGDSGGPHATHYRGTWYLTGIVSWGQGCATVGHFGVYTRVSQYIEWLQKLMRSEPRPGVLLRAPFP
UniProt P08709, 61-212 partner limits assumed: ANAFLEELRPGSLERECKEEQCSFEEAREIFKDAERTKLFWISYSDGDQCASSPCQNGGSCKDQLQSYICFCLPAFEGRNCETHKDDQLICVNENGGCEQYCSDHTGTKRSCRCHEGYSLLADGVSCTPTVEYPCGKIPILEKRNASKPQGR

For one test, the target named is human thrombin (Homo sapiens, UniProt P00734). As to the kind of experiment: Inhibition of thrombin hydrolysis of chromogenic substrate S2238 (Ki). The note with it: read-out: Ki values for inhibition of Serine Proteases: Trombin, purified human thrombin, 0.10 M sodium phosphate buffer, pH 7.5.
For a further test, the target named is human factor Xa (Homo sapiens, UniProt P00742). As to the kind of experiment: Inhibition of Factor Xa hydrolysis of chromogenic substrate S2222 (Ki).
Another test deals with human factor VIIa (Homo sapiens, UniProt P08709). In words: Inhibition of Factor VIIa hydrolysis of chromogenic substrate S2288 (Ki). The note with it: purified human factor VIIa, 0.05 M tris buffer, pH 7.6.

For the compound `CN(CC(=O)NC(CCCCNC(=O)OCc1ccccc1)C(=O)O)C(=O)CCc1ccccc1` (stereo not drawn), the Ki at human thrombin was below 50 µM; on human factor Xa (read-out: Ki values for inhibition of Serine Proteases: Factor Xa, purified human factor Xa, 0.10 M sodium phosphate buffer, pH 7.5) it was below 50 µM. Further, the “Ki values for inhibition of Serine Proteases: Factor VIIa” value on human factor VIIa is “inactive”.

As for `COC(=O)C(CCCCN)NC(=O)CN(C)C(=O)CCc1ccccc1` (single isomer, unassigned), the Ki on human thrombin is below 50 µM. Also, on human factor Xa (purified human factor Xa, 0.10 M sodium phosphate buffer, pH 7.5), the “Ki values for inhibition of Serine Proteases: Factor Xa” value is given as “Inactive”. In addition, at human factor VIIa, the “Ki values for inhibition of Serine Proteases: Factor VIIa” value is on record as “Inactive”.
